Data reported in patent publication US20140030260A1, “METHODS AND COMPOSITIONS TO ELIMINATE CHRONIC LYMPHOCYTIC LEUKEMIA AND OTHER HEMATOLOGIC MALIGNANT CELLS IN STROMAL MICROENVIRONMENT FOR CANCER THERAPY” (BOARD OF REGENTS, THE UNIVERSITY OF TEXAS SYSTEM, priority 2010, published 2014).

Tested on: primary leukemia cells (CLL)
Assay: Viability of primary CLL cells cultured alone or with stromal cells, flow cytometry after annexin-V/PI double-staining
Details: patient #10; different types of stromal cells; 50 μM selecticine, 20 μM F-ara-A or 20 μM oxaliplatin, 2 days

oxaliplatin [reference compound]
effect of stromal cells on the drug's cytotoxicity in CLL cells: protected
